TDP1 inh – TDP1 (human) enzyme inhibition. Q9NUW8. recombinant TDP1, AlphaScreen DNA substrate cleavage. Potency, µM (doses to about 130 µM), inactives show top-dose activity change, negative = inhibition, usual class: inhibitors. 0.28% of 350,000 active. AID 485290; also: potency is read from the fitted curve at half-maximal effect; % is scaled to controls: 0 for no effect and ±100 for the full control effect; nearly all actives have a fitted effect of over 40% in size
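Steps: enzyme plus compound, 15 min RT; add biotin/phosphotyrosine-FITC oligonucleotide (15 nM final), react 5 min; add donor/acceptor beads (10 ug/ml final), 10 min; read AlphaScreen. Tdp1 at 1 nM final.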
uPA generation – inhibitors of cell surface uPA generation; 0.31% of 330,000 active; Potency, µM (doses to about 38.3 µM), for the others: top-dose activity change, negative = inhibition, hits mostly inhibitors; AID 540303; cell surface uPA generation assay, qHTS; active = well fitted inhibition curve with a large enough effect; inconclusive = small, poorly fitted or top-dose-only effect; inactive = no such curve, though single readings can be large or run the other way; tested in mouse RAW 264.7 cells; also: potency is read from the fitted curve at half-maximal effect; % is scaled to controls: 0 for no effect and ±100 for the full control effect; nearly all actives have a fitted effect of over 55% in size
miR-21 reporter – miR-21 reporter, rising signal | HeLa miR-21 FLuc reporter, luciferase, 48 h | Potency, µM (doses to about 38.3 µM), inactives show at the top dose reporter change, positive = more light | 340,000 tested, under 10 active | AID 2288; active = well fitted rising curve with a large enough effect; inconclusive = small, poorly fitted or top-dose-only effect; inactive = no such curve, though single readings can be large or run the other way;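 note: % of control where 0% means no effect; miR-21 action dims this reporter so a rising signal means less miR-21 action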
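HeLa cells stably expressing CMV-driven firefly luciferase with a downstream miR-21 binding sequence, endogenously expressing miR-21, were treated with titrations (up to about 40uM final) for 48 hours at 37 degree Celsius. Luciferase luminescence was read after lysis.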
TDP1 cell CPT – DT40-hTDP1 cell growth loss with CPT; chicken DT40 Tdp1-/-;hTDP1 cells + 20 nM CPT, ATP luminescence, 48 h; Potency, µM (top dose mostly 46.2 µM), for the others: at the top dose activity change, negative = growth inhibition, most hits filed as inhibitors; 12% of 420,000 active; AID 686979; also: potency is read from the fitted curve at half-maximal effect; % is scaled to controls: 0 for no effect and ±100 for the full control effect; nearly all actives have a fitted effect of over 55% in size
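Cell growth measured by CellTiter-Glo luminescence after a minimum 48 h, 37 C compound exposure with 20 nM CPT in Tdp1-knockout DT40 cells stably expressing hTDP1, seeded 400/well; qHTS titration format.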
TDP1 cell noCPT – qHTS for Inhibitors of human tyrosyl-DNA phosphodiesterase 1 (TDP1): qHTS in cells in absence of CPT. DT40 Tdp1-/- hTDP1 cells, no CPT, ATP luminescence, 48 h. 15% of 420,000 active. Potency, µM (doses to about 46.2 µM), for the others: top-dose activity change, negative = growth inhibition, actives largely listed as inhibitors; also: potency is read from the fitted curve at half-maximal effect; % is scaled to controls: 0 for no effect and ±100 for the full control effect; nearly all actives have a fitted effect of over 55% in size
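No-CPT arm: Tdp1-/-;hTDP1 DT40 cells (400/well) plus compounds, incubated ≥48 hr at 37 °C. Readout CellTiter-Glo luminescence.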
* hit, by the source's call; [ ] = another dose, or the depositor's remark. Shown are actives, neighbours in structure and some others; about 16% of the full set was active somewhere. Unless noted, calls follow the shape of the dose curve; as a rule, active = well fitted curve in the direction sought with a large enough effect; inconclusive = small, poorly fitted or top-dose-only effect, or another doubt; inactive = no such curve, though single readings can be large; an effect the other way counts as inactive or inconclusive.

How did CC1CCc2[nH]c3ccc(C(=O)N(C)CC(=O)Nc4ccccc4Br)cc3c2C1 (stereo not drawn) do in these assays?
uPA generation: 0.2%; TDP1 cell CPT: inconclusive; TDP1 cell noCPT: 11.6µM*

What do the screens show for `CC(CC(=O)NC(C)c1ccc2c(c1)OCCO2)c1ccccc1` (stereo not drawn)?
TDP1 inh: -5.5%; uPA generation: 4.8%; miR-21 reporter: -14.3%; TDP1 cell CPT: -8.0%; TDP1 cell noCPT: -4.3%

How did CC(NC(=O)CCc1ccccc1)c1cc2c(cc1Cl)OCCO2 (stereo not drawn) do in these assays?
TDP1 inh: 2.5%; uPA generation: -2.2%; miR-21 reporter: -15.6%; TDP1 cell CPT: 14.6µM*; TDP1 cell noCPT: inconclusive

How did CN1CCN(c2nc(-c3ccc(Cl)cc3)nc3ccccc23)CC1 do in these assays?
uPA generation: 1.1%; miR-21 reporter: -1.2%; TDP1 cell CPT: inconclusive; TDP1 cell noCPT: 16.4µM*

How did Cc1nc(N2CCCCCC2)c2ccccc2n1 do in these assays?
uPA generation: inconclusive; miR-21 reporter: 19.4%; TDP1 cell CPT: inconclusive; TDP1 cell noCPT: 20.6µM*

What do the screens show for `CN1CCN(c2nc(-c3ccccc3Cl)nc3ccccc23)CC1`?
uPA generation: 3.7%; miR-21 reporter: -6.5%; TDP1 cell CPT: -3.8%; TDP1 cell noCPT: 1.8%

What do the screens show for `c1ccc2nc(N3CCCC3)c(N3CCCCC3)nc2c1`?
uPA generation: 1.3%; TDP1 cell CPT: -18.0%; TDP1 cell noCPT: inconclusive

Results for c1ccc2c(N3CCCC3)nc(-c3ccncc3)nc2c1 ?
TDP1 inh: 2.9%; uPA generation: 4.0%; miR-21 reporter: 2.6%; TDP1 cell CPT: inconclusive; TDP1 cell noCPT: 18.4µM*

What do the screens show for `c1ccc(-c2nc(N3CCCCCC3)c3ccccc3n2)nc1`?
TDP1 inh: 13.5%; uPA generation: -13.9%; miR-21 reporter: inconclusive; TDP1 cell CPT: 2.06µM*; TDP1 cell noCPT: 2.31µM*

How did CN1CCN(c2nc(-c3ccncc3)nc3ccccc23)CC1 do in these assays?
TDP1 inh: 4.3%; uPA generation: -13.6%; miR-21 reporter: 21.8%; TDP1 cell CPT: inconclusive; TDP1 cell noCPT: inconclusive

Results for Cc1ccc(C(=O)OCC(=O)NCc2ccc3c(c2)OCO3)o1 ?
TDP1 inh: 1.1%; uPA generation: 2.7%; TDP1 cell CPT: -1.9%; TDP1 cell noCPT: -2.8%

What do the screens show for `c1ccc(CN2CCN(c3nc(-c4ccccn4)nc4ccccc34)CC2)cc1`?
TDP1 inh: 12.9%; uPA generation: 2.0%; miR-21 reporter: inconclusive; TDP1 cell CPT: -4.9%; TDP1 cell noCPT: 2.3%

What do the screens show for `CCN1CCN(c2nc(-c3ccccn3)nc3ccccc23)CC1`?
TDP1 inh: 6.0%; miR-21 reporter: inconclusive; TDP1 cell CPT: inconclusive; TDP1 cell noCPT: 20.6µM*

Results for COc1cccc2c(=O)c3c(oc12)CCCC3 ?
TDP1 cell CPT: -6.3%; TDP1 cell noCPT: -18.5%

Results for O=Nc1c(O)n(Cc2ccc(Cl)cc2)c2ccccc12 ?
TDP1 inh: 7.8%; uPA generation: 0.3%; miR-21 reporter: -5.9%; TDP1 cell CPT: 7.4%; TDP1 cell noCPT: -25.5%

How did CCn1c(O)c(N=NC(=O)c2ccc(CSc3nncn3C)cc2)c2ccccc21 do in these assays?
TDP1 inh: 6.7%; uPA generation: 5.7%; miR-21 reporter: -8.6%; TDP1 cell CPT: inconclusive; TDP1 cell noCPT: 14.6µM*

Results for Cn1cnnc1SCc1ccc(C(=O)N=Nc2c(O)n(Cc3ccc(Cl)cc3)c3ccccc23)cc1 ?
TDP1 inh: 8.9%; uPA generation: inconclusive; miR-21 reporter: 0.0%; TDP1 cell CPT: 20.6µM*; TDP1 cell noCPT: 10.3µM*

Results for O=S(=O)(Nc1ccc2c(c1)OCO2)c1ccc(Br)s1 ?
TDP1 inh: 9.1%; uPA generation: -6.0%; miR-21 reporter: -28.4%; TDP1 cell CPT: inconclusive; TDP1 cell noCPT: -11.5%

What do the screens show for `CCc1ccc(N2CC(C(=O)Nc3cccc(C(=O)NC4CC4)c3)CC2=O)cc1` (stereo not drawn)?
TDP1 inh: -4.0%[56.1 µM]; uPA generation: 16.4%; TDP1 cell CPT: 1.6%; TDP1 cell noCPT: 4.0%

Sorted by heavy-atom count (smallest number first): some entries from above.
What do the screens show for `c1ccc(-c2nc(N3CCCCCC3)c3ccccc3n2)nc1`?
TDP1 inh: 13.5%; uPA generation: -13.9%; miR-21 reporter: inconclusive; TDP1 cell CPT: 2.06µM*; TDP1 cell noCPT: 2.31µM*

What do the screens show for `CC(CC(=O)NC(C)c1ccc2c(c1)OCCO2)c1ccccc1` (stereo not drawn)?
TDP1 inh: -5.5%; uPA generation: 4.8%; miR-21 reporter: -14.3%; TDP1 cell CPT: -8.0%; TDP1 cell noCPT: -4.3%

How did CCn1c(O)c(N=NC(=O)c2ccc(CSc3nncn3C)cc2)c2ccccc21 do in these assays?
TDP1 inh: 6.7%; uPA generation: 5.7%; miR-21 reporter: -8.6%; TDP1 cell CPT: inconclusive; TDP1 cell noCPT: 14.6µM*
